From patent publication US8835501B2, “Pharmaceutical formulations of HDAC inhibitors” (TopoTarget UK Limited, priority 2005, dated 2014) come the findings set out here.

This data set in a line: Solubility enhancement with cyclodextrins (saturated PXD-101 samples; HP-β-CD phase solubility). It counts as physicochemical. As to the method:
Saturated samples of PXD-101 were prepared in aqueous solutions of two natural cyclodextrins (α-CD and γ-CD) and hydroxypropyl derivatives of the α, β and γ cyclodextrins (HP-α-CD, HP-β-CD and HP-γ-CD). […] HP-β-CD offers the best solubility enhancement for PXD-101. […] The calculated saturated solubilities of the complexed HDACi were plotted against the concentration of cyclodextrin. […] This type of phase solubility diagram for cyclodextrins is referred to as an A-Type phase solubility plot. […] This deviation may be due to experimental error caused by the decision to use of mass, instead of volume, to dispense the more concentrated cyclodextrin samples due to their viscosity. Alternatively, it is possible that there is a slight deviation from the linear A-Type phase solubility behaviour.

On to Hydroxypropyl-γ-cyclodextrin [HP-γ-CD], for which the “Solubility Enhancement (of PXD-101)” value is 50.
